Test results from PMC10819019 (Pharmaceutics, 2024).

Assay: Stability assay of DPP-4 inhibitors after incubation with cysteine (nonenzymatic)
Settings: incubation with L-cysteine in phosphate buffer, 120 min

## N#C[C@@H]1CCCN1C(=O)CNC12CC3CC(CC(O)(C3)C1)C2 [Vildagliptin, vildagliptin]
  Cysteine conjugate formation (high-resolution MS): observed
